Assay results reported in patent publication US6803371B2, “Purine inhibitors of protein kinases, G proteins and polymerases” (The Regents of the University of California, priority 1997, dated 2004).

Biological target: cdc2/cyclinB
Experiment: cdc2/cyclinB kinase inhibition
Type: biochemical

- IC50: 600 nM
SMILES: COc1ccc(CNc2nc(N(CCN(C)C)Cc3ccccc3)nc3c2ncn3C(C)C)cc1 [NG-40]
